Converted amounts (≈) assume the structure as drawn.
Assays:
[1] = Thermodynamic solubility determination; conditions: 37 °C, 24 hours
[2] = Mouse pharmacokinetic study, plasma concentration (Cmax of plasma DNP) after oral dosing; conditions: p.o.; for Cmax of plasma DNP after dosing: analyte: plasma DNP; for AUClast: plasma; for Cmax: plasma (Table 3, The PK results)

COCCn1cc(COc2ccc([N+](=O)[O-])cc2[N+](=O)[O-])nc1[N+](=O)[O-]
Solubility ([1]; FaSSGF (pH 1.6)): 6.16 µg/mL (≈ 16.8 µM)
Solubility ([1]; FaSSIF (pH 6.5)): 5.72 µg/mL (≈ 15.6 µM)
Cmax of plasma DNP after dosing ([2]; 5 mg/kg): 2010 ng/mL
AUClast ([2]; 5 mg/kg): 8124 ng·h/mL
Cmax ([2]; 5 mg/kg): 2010 ng/mL
Cmax of plasma DNP after dosing ([2]; 10 mg/kg): 2477 ng/mL
AUClast ([2]; 10 mg/kg): 10598 ng.h/m L
Cmax ([2]; 10 mg/kg): 2477 ng/mL
Cmax of plasma DNP after dosing ([2]; 20 mg/kg): 4870 ng/mL
AUClast ([2]; 20 mg/kg): 26493 ng·h/mL
Cmax ([2]; 20 mg/kg): 4870 ng/mL
Cmax of plasma DNP after dosing ([2]; 30 mg/kg): 5880 ng/mL
Cmax of plasma DNP after dosing ([2]; 50 mg/kg): 9045 ng/mL
Cmax of plasma DNP after dosing ([2]; 100 mg/kg): 19533 ng/mL
Cmax of plasma DNP after dosing ([2]; 600 mg/kg): 11090 ng/mL
Cmax of plasma DNP after dosing ([2]; 1000 mg/kg): 22321 ng/mL
Cmax of plasma DNP after dosing ([2]; 2000 mg/kg): 14493 ng/mL
Cmax compared with Compound HU6 ([2]; at each dose, vs Compound HU6): lower than Compound HU6 at each dose
exposure level compared with Compound HU6 ([2]; all the dose range, vs Compound HU6): significantly lower than that of Compound HU6
exposure level compared with oral DNP directly ([2]; vs DNP): lower oral DNP directly

Source: patent US20260384400A1, “IMIDAZOLYL BINDS WITH DINITROPHENYL DERIVATIVES AND USE THEREOF” (published 2026)
